Results reported in patent US20090048229A1, “Methods for promoting wakefulness” (priority 2007, published 2009).

Tested on: total cholinesterase activity in the brain
Experiment: Total cholinesterase activity in brain homogenate after i.p. injection
Assay type: in vivo, rat
Details: 2 mg/kg i.p., brain 3 hours after injection
Procedure: Male Wistar rats were injected intraperitoneally (i.p.) with rivastigmine or with compounds of the invention. […] Animals were decapitated 3 hours after injection and the brains rapidly removed. The brain tissue was diced into small pieces, placed on ice and immediately homogenized with a Polytron PT1200 (Kinematic AG) in 10 ml ice cold Tris with 0.1% Triton-X and protease inhibitors. The protease inhibitors in the extraction buffer were Antipain (10 μM), Aprotinin (5 TIU/mg protein), Bestatin ([…]), Leupeptin (10 μM) and Pepstatin (1 μM). The final dilution of the homogenate in the final assay mixture was 120-fold.
Total cholinesterase activity was determined by a modification of the colorimetric method of Ellmann, et al. (Biochem. Pharmacol., 7:88-95 (1961)), as described above. Hydrolysis of acetylthiocholine was monitored indirectly by measurement of the formation of the conjugate between thiocholine and DTNB. Optical density at 405 nm was recorded during five (5) minutes employing a microplate spectrophotometer (Polarstar, BMG Labtech), and plotted against time. The initial rates were calculated from the slope of the linear portion of the graph.
Cholinesterase activity was normalized for protein content of the homogenate. […]

## CCN(C)C(=O)Oc1cccc([C@H](C)N(C)C)c1 [Compound 1, S-rivastigmine, reference compound]
  ChE inhibition: 15%
